Earlier results in US20240224991A9, “NANO-[…] N[…] PESTICIDE/FUNGICIDE CARRIERS FOR AGRICULTURE AND AQUACULTURE” (priority 2022, published 2024).

Conditions: cited from earlier work

Emamectin benzoate [EMB]
water solubility: ~24 µg/mL
